Earlier results in patent US12246011B2, “Radiation mitigator and method of use thereof” (Georgetown University, priority 2016, dated 2025).

Biological target: angiotensin II receptor type 1 (AT1) (Homo sapiens, UniProt P30556)
Details: AT1 versus AT2; cited from earlier work

## CCCc1nc2c(C)cc(-c3nc4ccccc4n3C)cc2n1Cc1ccc(-c2ccccc2C(=O)O)cc1 [telmisartan, Telmisartan]
  binding affinity greater for AT1 than for AT2: 3000 times
